Earlier results on 2 compounds are cited in patent publication US20220387435A1, “USE OF MULTI-TARGET PROTEIN KINASE INHIBITOR” (CSPC Zhongqi Pharmaceutical Technology (Shijiazhuang) Co., …, priority 2019, published 2022).

The test system of the series is FLT3, EGFR, Abl, Fyn, Hck, Lck, Lyn, Ret, Yes. Particulars: similar products, prior art; cited from earlier work.

Each structure is given as a SMILES string. “Also recorded” adds a separate entry of the source.

In the case of `CNC(=O)c1cc(Oc2ccc(NC(=O)Nc3ccc(Cl)c(C(F)(F)F)c3)cc2)ccn1` [Sorafenib], the Non-FLT3 targets entry is “c-KIT, PDGFR,; also recorded: RAF, VEGFR”.

In the case of `CC(C)(C)c1cc(NC(=O)Nc2ccc(-c3cn4c(n3)sc3cc(OCCN5CCOCC5)ccc34)cc2)no1` [Quizartinib], the Non-FLT3 targets entry was “c-KIT, PDGFR, and RET”.
